In PubChem BioAssay AID504332 (National Center for Advancing Translational Sciences (NCATS), 2011) one finds Potency and activity, negative = inhibition data, which are given here for 67 compounds.

Amino acid sequences for entries named in this document (tags omitted). Residues count along the entry.
UniProt Q96KQ7, 913-1193 limits assumed: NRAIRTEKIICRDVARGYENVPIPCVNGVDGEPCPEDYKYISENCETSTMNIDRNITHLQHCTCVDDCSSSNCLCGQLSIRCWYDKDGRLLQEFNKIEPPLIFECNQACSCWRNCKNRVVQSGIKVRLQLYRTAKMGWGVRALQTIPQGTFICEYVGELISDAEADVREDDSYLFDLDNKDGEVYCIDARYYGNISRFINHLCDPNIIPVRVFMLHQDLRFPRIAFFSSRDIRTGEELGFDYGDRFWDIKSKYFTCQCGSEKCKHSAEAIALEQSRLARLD

Structures are written as SMILES. Only a part is listed here, and it is no random draw. Results filed as inconclusive are left out. Where a call stands in place of a potency, no number is given. Activity calls are given as the source filed them. Calls follow the shape of the dose curve; as a rule, active = well fitted inhibition curve with a large enough effect; inconclusive = small, poorly fitted or top-dose-only effect; inactive = no such curve, though single readings can be large or run the other way.
Potency is read from the fitted curve at half-maximal effect.

The target of the experiment is Histone-lysine N-methyltransferase EHMT2 (Homo sapiens) (UniProt Q96KQ7). The experiment in a line: qHTS Assay for Inhibitors of Histone Lysine Methyltransferase G9a. Also: nearly all actives have a fitted effect of over 75% in size. As to conditions: G9a H3K9 monomethylation, AlphaScreen, 2 h; series mostly up to 102 µM. (In general: In qHTS, concentration-response curves come from the screen itself.)
Regarding `CC(C)c1ccc(NC2CCN(C(=O)OC(C)(C)C)CC2)cc1`, the Potency is active: 28.2 µM.
On the same count and under the same terms, for `CN(C)c1cccc(C(=O)NCC2(N3CCCCC3)CCCCC2)c1` the value was “inactive”.
On to `COc1cc(OC)c(C(=O)NCC2(N(C)C)CCCCC2)cc1OC`, for which the Potency entry was “inactive”.
In the case of `O=C(NCC1(N2CCCCC2)CCCCC1)c1cncc(Br)c1`, the Potency entry was “inactive”.
As to `CCCCOc1ccccc1C(=O)NCC1(N2CCOCC2)CCCCC1`, the Potency entry is “inactive”.
Still for that read-out and setting: then `CCCOc1ccc(C(=O)NCC2(N(C)C)CCCCC2)cc1OC`, with “inactive”; and `O=C(NCC1(N2CCOCC2)CCCCC1)c1ccccc1Br`, with “inactive”; and `O=C(NCC1(N2CCCCC2)CCCCC1)c1ccc(OC(F)F)cc1`, with “inactive”.
`CCN1CCC(Nc2ccc(Cl)cc2)CC1`: the Potency is active: 79.4 µM.
Turning to `O=C(NCC1(N2CCCCC2)CCCCC1)c1cccc([N+](=O)[O-])c1`, the Potency result is “inactive”.
Still for that read-out and setting: for `CCOc1ccc(C(=O)NCC2(N3CCOCC3)CCCCC2)cc1` the value was “inactive”.
On the same count and under the same terms, for `CSc1ccc(C(=O)NCC2(N3CCOCC3)CCCCC2)cc1` the value was “inactive”; for `O=[N+]([O-])c1cc([N+](=O)[O-])c(NCC2CCS(=O)(=O)C2)c([N+](=O)[O-])c1` (configuration not stated), “inactive”.
In the case of `CCCOc1cccc(C(=O)NCC2(N3CCOCC3)CCCCC2)c1`, the Potency entry was “inactive”.
As for `O=C(NCC1(N2CCCCC2)CCCCC1)c1cccc(C(F)(F)F)c1`, the Potency entry was “inactive”.
Still for that read-out and setting: for `COc1cc(C(=O)NCC2(N3CCCCC3)CCCCC2)ccc1OC(F)F` the value was “inactive”.
The same measure, in the same setting: then `O=C(NCC1(N2CCOCC2)CCCCC1)c1cc(=O)[nH]c2ccccc12`, with “inactive”.
Take `CN1CCN(CCOC(=O)C(O)(c2ccccc2)c2ccccc2)CC1`: the Potency entry is “inactive”.
On the same count and under the same terms, then `COc1ccc(NC2CCN(C(=O)OC(C)(C)C)CC2)cc1`, with active: 3.55 µM; and `CC(C)c1ccc(C(=O)NCC2(N3CCOCC3)CCCCC2)cc1`, with “inactive”.
As for `O=C(NCC1(N2CCOCC2)CCCCC1)c1ccc(Cl)cc1`, the Potency entry was “inactive”.
Still for that read-out and setting: then `COc1ccccc1C(=O)NCC1(N2CCOCC2)CCCCC1`, with “inactive”; and `O=C(NCC1(N2CCCCC2)CCCCC1)c1ccc(F)cc1`, with “inactive”.
With `CCCCOc1ccc(C(=O)NCC2(N3CCOCC3)CCCCC2)cc1`, the Potency result is “inactive”.
Still for that read-out and setting: for `COc1ccc(NC2CCN(CCc3ccccc3)CC2)c(OC)c1` the value was active: 10 µM.
The same measure, in the same setting: then `CCOC(=O)N1CCC(Nc2ccc(F)cc2)CC1`, with “inactive”.
On the same count and under the same terms, then `COc1cc(C(=O)NCC2(N(C)C)CCCCC2)ccc1OC(F)F`, with “inactive”; and `Cc1ccc(OCC(C)C)c(CN(CCCl)CCCl)c1`, with active: 39.8 µM.
As to `COc1ccc(C(=O)NCC2(N3CCCCC3)CCCCC2)c(OC)c1OC`, the Potency entry is “inactive”.
On to `CC(C)(C)OC(=O)N1CCC(N(C(=O)c2ccccc2)c2ccc(F)cc2)CC1`, for which the activity, negative = inhibition was inactive: -8% [at 2.33 µM].
On to `O=C(NCC1(N2CCCCC2)CCCCC1)c1ccc(=O)[nH]c1`, for which the Potency result was “inactive”.
Turning to `O=C(NCC1(N2CCCCC2)CCCCC1)c1cccs1`, the Potency was active: 17.8 µM.
The same measure, in the same setting: then `Cc1cc(C)cc(N(C(=O)c2ccccc2)C2CCN(C(=O)OC(C)(C)C)CC2)c1`, with “inactive”; and `O=C(NCC1(N2CCOCC2)CCCCC1)c1cc2ccccc2o1`, with “inactive”; and `O=C(OC1CN2CCC1CC2)C1c2ccccc2Oc2ccccc21` (configuration not stated), with “inactive”.
Consider `O=C(NCC1(N2CCCCC2)CCCCC1)c1ccc(Cl)s1`, for which the Potency entry was “inactive”.
The same measure, in the same setting: then `N#CC1(Nc2ccccc2)CCN(Cc2ccccc2)CC1`, with “inactive”; and `COc1ccc(Cl)cc1C(=O)NCC1(N2CCOCC2)CCCCC1`, with “inactive”.
Consider `CCOC(=O)N1CCC(Nc2ccc(OC)cc2)CC1`, for which the Potency was active: 11.2 µM.
As to `CCOc1ncccc1C(=O)NCC1(N2CCOCC2)CCCCC1`, the activity, negative = inhibition was inactive: -19.4% [at 12.7 µM].
As for `CC(C)(C)OC(=O)N1CCC(Nc2ccccc2)CC1`, the Potency result is “inactive”.
For `O=C(O)C1(Nc2ccccc2)CCN(Cc2ccccc2)CC1`, the Potency result was “inactive”.
Regarding `CCCOc1ccc(C(=O)NCC2(N(C)C)CCCCC2)cc1`, the Potency result is “inactive”.
On to `COc1cc(C(=O)NCC2(N3CCOCC3)CCCCC2)cc(OC)c1OC`, for which the Potency result is “inactive”.
For `COc1cc(OC)cc(C(=O)NCC2(N3CCOCC3)CCCCC2)c1`, the activity, negative = inhibition was inactive: -10.9% [at 0.0925 µM].
The same measure, in the same setting: for `COc1cccc(C(=O)N(c2cc(C)cc(C)c2)C2CCN(C(=O)OC(C)(C)C)CC2)c1` the value was inactive: 2.08% [at 2.33 µM].
`CN1CCC(Nc2ccc(Cl)cc2)CC1`: the Potency is active: 50.1 µM.
Same read-out and setting: then `CN(C)C1(CNC(=O)c2ccc(C(C)(C)C)cc2)CCCCC1`, with “inactive”; and `COc1cc(OC)cc(C(=O)NCC2(N3CCCCC3)CCCCC2)c1`, with “inactive”; and `Cc1ccc(C(=O)NCC2(N3CCCCC3)CCCCC2)o1`, with “inactive”.
As to `CCN1CCC(Nc2cccc(F)c2)CC1`, the Potency was active: 50.1 µM.
Same read-out and setting: then `Cc1ccccc1C(=O)NCC1(N(C)C)CCCCC1`, with “inactive”; and `CC(C)(C)c1ccc(C(=O)NCC2(N3CCOCC3)CCCCC2)cc1`, with “inactive”.
For the compound `O=C(NCC1(N2CCCCC2)CCCCC1)c1ccco1`, the activity, negative = inhibition was inactive: 2.53% [at 12.7 µM].
Consider `N#Cc1ccc(C(=O)NCC2(N3CCCCC3)CCCCC2)cc1`, for which the Potency is active: 50.1 µM.
On the same count and under the same terms, for `O=C(NCC1(N2CCOCC2)CCCCC1)c1ccccc1[N+](=O)[O-]` the value was “inactive”.
For `CC(C)(C)OC(=O)N1CCC(N(C(=O)c2ccccc2)c2ccc(Cl)cc2)CC1`, the Potency result is “inactive”.
Regarding `O=C(NCC1(N2CCOCC2)CCCCC1)c1ccc([N+](=O)[O-])cc1`, the Potency result was “inactive”.
On to `CCOC(=O)C(CC)C1=NC(C)(C)Cc2ccccc21.O=[N+]([O-])c1cc([N+](=O)[O-])c(O)c([N+](=O)[O-])c1` (configuration not stated), for which the Potency result is “inactive”.
As for `CN(C)C1(CNC(=O)c2cccc(C#N)c2)CCCCC1`, the Potency entry is “inactive”.
Turning to `c1ccc(CN2CCC(Nc3ccccc3)CC2)cc1`, the Potency is active: 79.4 µM.
The same measure, in the same setting: for `O=C(NCC1(N2CCOCC2)CCCCC1)c1ccccc1` the value was “inactive”.
Turning to `O=C(NCC1(N2CCOCC2)CCCCC1)c1cc(Br)ccc1Cl`, the activity, negative = inhibition is inactive: 19.2% [at 12.7 µM].
`COc1ccc(C(=O)NCC2(N3CCOCC3)CCCCC2)cc1OC`: the Potency entry was “inactive”.
`O=C(OC1CN2CCC1CC2)C1c2ccccc2C=Cc2ccccc21` (configuration not stated): the Potency result was “inactive”.
On the same count and under the same terms, for `CCc1cc(C(=O)NCC2(N3CCCCC3)CCCCC2)sc1C` the value was “inactive”; for `O=C(O)c1cccc(Nc2c([N+](=O)[O-])cc([N+](=O)[O-])cc2[N+](=O)[O-])c1`, “inactive”.
